Biological target: human NOP receptor (Homo sapiens, UniProt P41146)
Test: DMR assay in CHONOP cells, agonist effects
Conditions: pEC50, CHONOP cells, DMR peak; 37°C; at least 3 experiments in triplicate; inactive = no DMR response up to 1 μM; parentheses: CL95% (Fig 3)

Protein sequences, listed by entry. Tags and fused reporters are not part of them. Lines headed by an entry give the natural chain unless they say otherwise; changes in a name come on top.
UniProt P41146: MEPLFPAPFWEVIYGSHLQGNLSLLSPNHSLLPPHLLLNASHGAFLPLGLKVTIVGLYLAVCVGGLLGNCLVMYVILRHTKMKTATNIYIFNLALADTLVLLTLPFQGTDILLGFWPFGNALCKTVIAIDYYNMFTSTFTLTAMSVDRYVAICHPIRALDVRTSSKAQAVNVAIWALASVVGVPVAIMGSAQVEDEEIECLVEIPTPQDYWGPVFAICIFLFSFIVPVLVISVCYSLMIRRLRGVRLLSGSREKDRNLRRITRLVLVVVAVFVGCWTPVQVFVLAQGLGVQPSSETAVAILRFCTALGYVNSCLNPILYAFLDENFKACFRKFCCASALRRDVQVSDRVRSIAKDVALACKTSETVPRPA

With C[C@H](NC(=O)CNC(=O)[C@@H](NC(=O)[C@H](Cc1ccccc1)NC(=O)CNC(=O)CNC(=O)[C@@H](N)Cc1ccccc1)[C@@H](C)O)C(=O)N[C@@H](CCCN=C(N)N)C(=O)N[C@@H](CCCCN)C(=O)N[C@@H](CO)C(=O)N[C@@H](C)C(=O)N[C@@H](CCCN=C(N)N)C(=O)N[C@@H](CCCCN)C(=O)N[C@@H](CCCN=C(N)N)C(=O)N[C@@H](CCCCN)C(=O)N[C@@H](CC(N)=O)C(=O)N[C@@H](CCC(N)=O)C(=O)O [[Arg^14,Lys^15]N/OFQ] as the compound, how does the EC50 read?
The EC50 was 2.34 nM.
